Several values for one entry are separate records, joined by “and”; a condition that tells them apart may be missing. Equal entries are not always repeated.
Tests used:
Zein = Zein solubility test method (irritation potential)
[1] = Effect on solubility of 12 HSA (visual observation); type: physicochemical

| Substance | Zein solubilty (Zein; 2% total surfactant in water, control, 1 g, co-surfactant 0 mg) | Observation ([1]; 41.18% Tween 60, 29.41% 12-HSA, 29.41% compound) | Observation ([1]; 41.67% Tween 60, 41.67% 12-HSA, 16.67% compound) | Zein solubilty (Zein; 2% total surfactant and compound in water, SLG 20% 0.7 g + co-surfactant 60 mg) | Irritation compared with control compounds (SLG, or coco glycinate) (Zein; Zein solubility test) |
| --- | --- | --- | --- | --- | --- |
| coco glycinate [reference compound] | 77.2% and 80.6% |  |  |  |  |
| conjugated linoleyl glycinate acid [Compound 1] |  | translucent/clear | translucent | 25% and 23% | less irritating |
